Data reported in US9611276B2, “Imidazo bicyclic iminium compounds as antitumor agents” (THE BOARD OF TRUSTEES OF THE LELAND STANFORD JUNIOR …, priority 2012, dated 2017).

Test system: Gli3
Assay: Hh ligand-dependent Gli3 processing in Shh-EGFP cells
Type: cell-based
Details: ShhN stimulation

CC1=C2C[C@H]3[C@@H](CC=C4C[C@@H](O)CC[C@@]43C)[C@@H]2CC[C@]12O[C@@H]1C[C@H](C)CN[C@H]1[C@H]2C [cyclopamine, reference compound]
Effect on Gli3 processing, Gli3FL/Gli3R ratio: abrogated that effect
